Binding of CDR-mutated scFvs to a peptide of the spike HR2 region

Reference: Li et al. 2023, doi:10.1038/s41467-023-39022-2. File: FLAb, binding data.

The target is the same throughout: PDVDLGDISGINAS, from the HR2 region of SARS-CoV-2 spike.

Parent: Ab-14, a human scFv built as VH, three GGGGS repeats, VL. Only the CDRs of the light chain vary.
VH: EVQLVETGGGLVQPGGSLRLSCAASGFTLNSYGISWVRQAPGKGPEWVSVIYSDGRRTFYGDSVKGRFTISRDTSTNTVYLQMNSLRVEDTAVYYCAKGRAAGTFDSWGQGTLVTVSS
VL: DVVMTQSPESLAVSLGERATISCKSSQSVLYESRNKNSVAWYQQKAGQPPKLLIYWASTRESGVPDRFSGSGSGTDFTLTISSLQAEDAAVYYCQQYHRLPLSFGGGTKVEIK

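Phage display of a naive human antibody library on the peptide gave the parent. This is the validation round: designs drawn from the data on random variants, tested in the same kind of assay. Several design methods are mixed in this list. Affinity was read by AlphaSeq, a pooled yeast mating assay with surface-displayed partners. After mating in shaken culture at 30 °C for 16 h, diploids were selected and their barcode pairs sequenced. A regression on co-assayed BCL2-family reference pairs converts the normalised counts of each replicate to an apparent Kd. Mating was done six times.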

Each variant is given by its three light chain CDRs, as the data file delimits them; those of the parent are KSSQSVLYESRNKNSVA, WASTRES, QQYHRLPLS.
Values are log10 of the apparent Kd in nM; lower means stronger binding.
Replicates are averaged; those with no signal do not enter the mean.
A pair that was not seen in any replicate is written "not detected"; this usually means weak binding, but a binder can also be missed.
Values of this round are not directly comparable with the first-round values of the same sequences.
Empty control strains, which show no peptide, gave a signal in 4% of pairings with all light chain designs; the median was 2.64 and 95% of these signals were weaker than 1.59. No background was subtracted. The control count says in how many pairings with the empty strains this scFv gave a signal.
The authors' rule: three or more of the six replicates give a measured affinity, fewer mean a poor binder.

CDR-L1 | CDR-L2 | CDR-L3 | mean log10 Kd (nM) | replicates with signal | control signals
KLSQSVEYESRNKNSVA | EASTREY | QAYHRLPLA | 0.38 | 6 of 6 | 1 of 18
MMGLCQNGYYQQNNSIA | DVNERAM | QQYGRLPLS | 1.55 | 6 of 6 | 3 of 18
KFHMGWEAGQRKHDNVA | EANLRFS | QQYNHLPLI | 1.02 | 6 of 6 | 0 of 18
KLSGLMASSKFAKQNVA | ENNTREK | QQYDRLPLS | 2.69 | 3 of 6 | 3 of 18
QIAMEMYHDLNDAQNVA | DAMTEIP | QQYNRLPLS | not detected | 0 of 6 | 0 of 18
KLSPSFLYESRNKMSVA | NADTRLE | QQYHRLPLS | -0.19 | 6 of 6 | 2 of 18
QLQYAPGESLRSTHSIA | DVNIKDM | QQYARLPLA | 0.31 | 6 of 6 | 3 of 18
KVEQSVMLESRWKNSVA | NASTRCS | QQYHRLPLS | 0.73 | 6 of 6 | 0 of 18
KLPQSFLYESRNKNSVA | DASTRES | QQYHRLPLS | -0.34 | 6 of 6 | 0 of 18
KLPQSVLYESRNKNSVA | NASTRCS | QQYHRLPLS | -0.16 | 6 of 6 | 1 of 18
KQQILVEQESRQKNSVA | NASTRCE | QQYHRLPLS | 1.07 | 6 of 6 | 1 of 18
KLEQSDLYESRNKNSVA | NASTRMS | QQYHRLPLS | -0.18 | 6 of 6 | 2 of 18
KSSMSVLYESRNKNSVA | WASTRES | PQYHRLPLS | not detected | 0 of 6 | 1 of 18
KIDQSELEESRNKNSVA | WATVREV | QQYHRLPLS | 1.53 | 6 of 6 | 0 of 18
KFPQSVLYESRNKNSVA | DASTRES | QQYHRLPLS | -0.53 | 6 of 6 | 0 of 18
NVRDSLGYEQNVGSAVA | EASQVED | QQYYTLPLT | 1.55 | 6 of 6 | 0 of 18
KLQQSVLYESRNKNSVA | NASTRCD | QQYHRLPLS | 0.00 | 6 of 6 | 2 of 18
KLSQSVLYESRNKNSVA | HASTRED | QSYHRLPLS | 0.07 | 6 of 6 | 3 of 18
KSSESVLYESRNKNSVA | WVSTREP | QQYMRLPLS | 1.76 | 4 of 6 | 1 of 18
KLSMTHGMELINRNSVA | ELVTRMS | QQYNRLPLS | 0.91 | 6 of 6 | 1 of 18
KVSQSWQYESRNKQSVA | HASQRES | QQYHRLPLS | 0.52 | 6 of 6 | 2 of 18
KLDQGDLYESRNKNSVA | GASTRES | QQYHRLPLS | 0.22 | 6 of 6 | 0 of 18
WSSQSVLYESRNKNSVA | WASTRES | QQYHWLPLS | 1.33 | 1 of 6 | 0 of 18
TLSQSWGMESHHKNNVA | QEQTREK | QQYFRLPIS | 1.90 | 6 of 6 | 0 of 18
KNSQSVLYEERNKNSVA | WASTRES | QQYHRLPLS | 2.11 | 1 of 6 | 0 of 18
KLSQSFLYESRNKNSVA | NASKRES | QQYHRLPLS | 0.38 | 6 of 6 | 0 of 18
NLSMELLDATVKDMSIA | DAELSTM | QQYMRLPLS | 1.08 | 6 of 6 | 1 of 18
KVSQSVPYEDRNKNSVA | NASQRES | QQYHRLPLS | 0.04 | 6 of 6 | 0 of 18
KVSQSVLYESRNKNQVA | EASTRES | QQYHRLPLS | 0.39 | 6 of 6 | 2 of 18
KSSQSVLYESLNKNSVA | AASTRES | QQYHRLPFS | 0.58 | 6 of 6 | 0 of 18
KVSQSKLYESRQKNSVA | NASQREL | QQYHRLPLS | 0.38 | 6 of 6 | 1 of 18
MIGEFLMQGQYKKNSVA | QANLRAE | QHYHRLPLE | 0.97 | 6 of 6 | 0 of 18
KLSQSFLYESRWKNSVA | GASQRES | QQYHRLTLS | 1.87 | 1 of 6 | 0 of 18
KFSQSVLYESRTSNSVA | NASTRES | QQYHRLPLS | -0.43 | 6 of 6 | 3 of 18
KLYQSMGYLSRNKNSIA | DMSRREN | QQYHRLPLS | 0.50 | 6 of 6 | 2 of 18
KISQSVWYESRNKNSVA | EASTRES | QQYHRLPLS | -0.65 | 6 of 6 | 2 of 18
KSGQSFLYESRNKNSVA | GASMREE | QQYHRLPLS | 0.23 | 6 of 6 | 1 of 18
KSSQSVLYESRNKNSLA | SANTRES | QQYHRLPLS | 1.10 | 6 of 6 | 1 of 18
KISQSWLYESRNINNVA | NCSMRES | QQYHRLPLS | 0.51 | 6 of 6 | 1 of 18
MISQSFLIGMKAKNNVA | QTSTRES | QQYDRLPLS | 0.45 | 6 of 6 | 1 of 18
KHSISYLGEKRNKNSVA | EASTRES | QQYHRLPLS | 0.45 | 6 of 6 | 0 of 18
KVQQSVLYESRNKNSVA | EASQRES | QQYHRLPLS | -0.18 | 6 of 6 | 0 of 18
KVSQSELYESRNKNSVA | EASTRED | QQYHRLPLS | 0.62 | 6 of 6 | 0 of 18
KMEQSELYESRNKNSVA | NASQRES | QQYHRLPLS | 0.35 | 6 of 6 | 2 of 18
KLQGSHLYESRNKNSVA | HASLRLS | QCYHRLPLS | 2.06 | 6 of 6 | 0 of 18
KIDQWKLGESRNKNSVA | DASTRMS | QQYHRLPLS | 0.12 | 6 of 6 | 2 of 18

The first 7 entries again:

CDR-L1 | CDR-L2 | CDR-L3 | mean log10 Kd (nM) | replicates with signal | control signals
KLSQSVEYESRNKNSVA | EASTREY | QAYHRLPLA | 0.38 | 6 of 6 | 1 of 18
MMGLCQNGYYQQNNSIA | DVNERAM | QQYGRLPLS | 1.55 | 6 of 6 | 3 of 18
KFHMGWEAGQRKHDNVA | EANLRFS | QQYNHLPLI | 1.02 | 6 of 6 | 0 of 18
KLSGLMASSKFAKQNVA | ENNTREK | QQYDRLPLS | 2.69 | 3 of 6 | 3 of 18
QIAMEMYHDLNDAQNVA | DAMTEIP | QQYNRLPLS | not detected | 0 of 6 | 0 of 18
KLSPSFLYESRNKMSVA | NADTRLE | QQYHRLPLS | -0.19 | 6 of 6 | 2 of 18
QLQYAPGESLRSTHSIA | DVNIKDM | QQYARLPLA | 0.31 | 6 of 6 | 3 of 18